Patent US20070258899A1, “Diagnostic and therapeutic agents” (KARYON-CTT LTD, priority 2006, published 2007)

Columns and labels:
HCT-15 tumors = details: 4 nmol into tail vein, 15 min circulation; for accumulation in HTC-15 tumors compared to normal tissue (europium content): perfused; for europium signal in kidney: due to excretion of the agent; for tumor-to-muscle ratio (europium content): HTC-15 tumors
[1] = system: HCT-15-LM1 lung metastases; details: 4 nmol into tail vein, 15 min circulation; for accumulation in HCT-15-LM1 lung metastases compared to normal tissue (europium content): perfused

Substance	accumulation in HTC-15 tumors compared to normal tissue (europium content) (HCT-15 tumors)	europium signal in kidney (HCT-15 tumors)	tumor-to-muscle ratio (europium content) (HCT-15 tumors)	accumulation in HCT-15-LM1 lung metastases compared to normal tissue (europium content) [1]	ratio of lung metastase Eu-content to-muscle Eu-content [1]
a*YGFVWGEE*-(Teg-E)2-AMB-DTPA-Eu [MJ018]	accumulated strongly and selectively	high signal	high	accumulated strongly and selectively	–
Ac-aYGFVWGEE-(Teg-Glu)2-AMB-DTPA-Eu [MJ017]	accumulated strongly and selectively	high signal	high	accumulated strongly and selectively	4.1
